Biological target: 5-HT1A binding site (Rattus norvegicus, UniProt P19327)
Test: biochemical

Sequences of proteins named here, by UniProt entry; tags and fusion partners are left off.
UniProt P19327, whole entry: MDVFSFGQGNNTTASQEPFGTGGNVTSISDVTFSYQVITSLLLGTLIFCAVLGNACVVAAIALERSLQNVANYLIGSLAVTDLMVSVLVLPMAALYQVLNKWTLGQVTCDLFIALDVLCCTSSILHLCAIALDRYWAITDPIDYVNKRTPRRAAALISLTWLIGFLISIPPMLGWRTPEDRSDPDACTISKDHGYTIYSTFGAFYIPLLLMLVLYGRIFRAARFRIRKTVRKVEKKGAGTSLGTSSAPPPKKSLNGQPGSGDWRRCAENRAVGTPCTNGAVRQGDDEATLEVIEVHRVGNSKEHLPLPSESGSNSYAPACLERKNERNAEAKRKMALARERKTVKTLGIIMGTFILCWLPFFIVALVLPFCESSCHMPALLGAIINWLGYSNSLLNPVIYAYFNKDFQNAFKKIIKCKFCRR

Structure (SMILES): NCCc1c[nH]c2ccc(O)cc12 [Compound 5-HT]
- IC50: 10 to 100 nM

Structure (SMILES): COc1ccc2[nH]cc(C3=CCNCC3)c2c1 [RU24969]
- IC50: 10 to 100 nM

— patent US6056942A, “5-HT1A ligands” (John Wyeth & Brother, Ltd., priority 1993, dated 2000)
